This test concerns the target Intestinal-type alkaline phosphatase (Homo sapiens, UniProt P09923). Put plainly: human IAP enzyme inhibitors, dose response, biochemical, luminescence (AID 1017).

Protein sequences, listed by entry. Tags and fused reporters are not part of them. Lines headed by an entry give the natural chain unless they say otherwise; changes in a name come on top.
UniProt P09923: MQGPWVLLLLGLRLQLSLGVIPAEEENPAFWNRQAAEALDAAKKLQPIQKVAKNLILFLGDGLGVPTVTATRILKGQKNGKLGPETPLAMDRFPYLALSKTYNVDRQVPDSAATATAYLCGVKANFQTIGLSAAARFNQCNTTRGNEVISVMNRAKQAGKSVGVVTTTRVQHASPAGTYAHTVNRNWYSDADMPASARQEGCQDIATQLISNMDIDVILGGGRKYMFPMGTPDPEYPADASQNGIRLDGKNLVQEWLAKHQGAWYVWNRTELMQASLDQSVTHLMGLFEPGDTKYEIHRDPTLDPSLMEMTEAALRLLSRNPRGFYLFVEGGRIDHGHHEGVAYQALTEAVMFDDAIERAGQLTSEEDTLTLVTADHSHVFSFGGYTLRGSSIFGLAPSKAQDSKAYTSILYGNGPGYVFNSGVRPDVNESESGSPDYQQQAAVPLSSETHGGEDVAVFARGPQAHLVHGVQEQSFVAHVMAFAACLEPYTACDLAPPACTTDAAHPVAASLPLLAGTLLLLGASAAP

Counter-ions that a name gives are not always drawn.

What is called IC50 is the concentration needed to halve the response being measured. A low value points to greater potency in that assay. The molecule `Cc1nccn1CC(=O)c1ccc(O)c(O)c1` [1-(3,4-dihydroxyphenyl)-2-(2-methyl-1-imidazolyl)ethanone;hydrochloride] had an IC50 of 64.6 µM.

Source of the values: BindingDB's records for doi:10.7270/Q2JQ0ZDS (Sanford-Burnham Center for Chemical Genomics, 2009).
